## Measured affinities in a library of Ab-14 light chain variants

The measurements come from Li et al. 2023 (doi:10.1038/s41467-023-39022-2) through the FLAb antibody collection.

The target is the same throughout: PDVDLGDISGINAS, from the HR2 region of SARS-CoV-2 spike.

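These sequences belong to a second round, designed from the earlier measurements on random variants of the parent. Several design methods are mixed in this list. In AlphaSeq, yeast of one mating type display the scFv and yeast of the other type display the target. After mating in shaken culture at 30 °C for 16 h, diploids were selected and their barcode pairs sequenced. A regression on co-assayed BCL2-family reference pairs converts the normalised counts of each replicate to an apparent Kd. There are six technical replicates.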

Each scFv is VH, a 15-residue (Gly4Ser)3 linker, VL, as in the parent Ab-14, and differs from it in the CDRs of the light chain only.
VH: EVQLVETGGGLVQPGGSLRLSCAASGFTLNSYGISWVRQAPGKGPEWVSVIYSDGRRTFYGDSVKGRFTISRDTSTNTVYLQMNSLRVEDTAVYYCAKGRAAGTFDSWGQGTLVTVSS
VL: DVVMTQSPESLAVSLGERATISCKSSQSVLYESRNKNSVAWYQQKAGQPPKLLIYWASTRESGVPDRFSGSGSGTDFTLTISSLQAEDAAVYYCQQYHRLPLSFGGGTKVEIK

The parent's light chain CDRs are KSSQSVLYESRNKNSVA, WASTRES, QQYHRLPLS; each variant's own CDRs replace them letter for letter.
Variants here have at most six changes.
The Kd shown is the geometric mean over detected replicates; a lower Kd is a better binder.
A pair that was not seen in any replicate is written "no signal"; this usually means weak binding, but a binder can also be missed.

The variant KSSISVLYESLNKNSVA / EASTRES / QQYHRLPLS gave 59 nM (3 of 6 replicates).
The variant KLSQSVLYEERNKNNVA / NASTRMS / QQYHRLPLS gave 270 pM (6 of 6 replicates).
The variant KSSQSVVYESNNKNSVA / WAMTRES / QQYHRLPLS gave 9.8 nM (1 of 6 replicates).
The variant WSSQSVLYESVNKNSVA / WASTREK / QQYHRLPLS gave no signal (0 of 6 replicates).
The variant KLSQSHLYESRMKNSVA / EASTRES / QQYHRLPLS gave 2.9 nM (6 of 6 replicates).
The variant KSRGPVLYESRNKNSVA / WASTREY / QQYHRLPLS gave 13 nM (1 of 6 replicates).
The variant KVSQSVLYESRTKNSVA / NASTRES / QQYHRLPLS gave 860 pM (6 of 6 replicates).
The variant KLSQSWLYESRNKNNVA / NASTRCS / QQYHRLPLS gave 490 pM (6 of 6 replicates).
The variant KSSQSVLYENRNTNSVA / EASTRES / QAYHRLPLS gave 20 nM (6 of 6 replicates).
The variant KVSQSNGYESRMKNSVA / HASQRES / QQYHRLPLS gave 66 nM (3 of 6 replicates).
The variant KSSQSVLYESRNKNSVA / WAWTRAS / QQYHRLPLA gave 29 nM (1 of 6 replicates).
The variant KLSQSWLYESRNCNSVA / NASQRES / QQYHRLPLS gave 2.2 nM (6 of 6 replicates).
The variant KFLQSVLYESRNFNSVA / HASTRED / QQYHRLPLS gave 2.4 nM (6 of 6 replicates).
The variant KFSQSVLYESRTKNAVA / NASTRES / QQYHRLPLS gave 970 pM (6 of 6 replicates).
The variant KQSQSMLCESRNKNSVA / DASTRES / QQYHRLPLS gave 2.0 nM (6 of 6 replicates).
The variant KLSPSVLAESDQKNSVA / WASTRES / QQPHRLPLS gave 200 nM (5 of 6 replicates).
The variant KVSISYLLESRNKNSVA / DASTRES / QQYHRLPLS gave 460 pM (6 of 6 replicates).
The variant VSSQSVLYESRNKNSVA / SASTRES / QQYHRLPLS gave 330 nM (4 of 6 replicates).
The variant KVSQSELYESRNKNAVA / NASTRES / QQYHRLPLS gave 2.9 nM (6 of 6 replicates).
The variant KFSQSVLYESRNKNSVA / WASTREV / NQYHRLPLS gave 32 nM (1 of 6 replicates).
The variant KFSQSVLYESRNKNSVA / WASTRAS / QQYHRLPLS gave 9.4 nM (6 of 6 replicates).
The variant KSSQSVLYESRAKNSVA / WAYTRES / QQYHRLPLS gave 3.7 µM (1 of 6 replicates).
The variant KLQQSQEYESRNKNSVA / QASTRED / QQYHRLPLS gave 1.3 nM (6 of 6 replicates).
The variant KSSQSVLMESRNKNAVA / WASTREQ / QQYHRLPLE gave 97 nM (22 of 30 replicates).
The variant QSSQSQLYESRNKNSVA / GASTRES / QQYHRLPLS gave 1.9 nM (6 of 6 replicates).
The variant KVSQSWLYESRNFNSVA / NASTRES / QQYHRLPLS gave 1.1 nM (6 of 6 replicates).
The variant KSSWSVLYESRNKNSVA / EASTRES / QQYHRLPLS gave 3.1 nM (6 of 6 replicates).
The variant KVSQSMLYESRNKNNVA / DASQRES / QQYHRLPLS gave 460 pM (6 of 6 replicates).
The variant KLQQSQEYESRNKNSVA / QASTRES / QQYHRLPLS gave 730 pM (6 of 6 replicates).
The variant KSQQSVLYESRCKNSVA / HASTRES / QQYHRLPLS gave 61 nM (6 of 6 replicates).
The variant KLSQSVLYESRNKNSVA / GASTRES / QQYHRLPLM gave 1.6 nM (6 of 6 replicates).
The variant KLQQSVLYESRNKNSVA / NASTREK / QQYHRLPLS gave 730 pM (6 of 6 replicates).
The variant KSSQSFLYESRNKNSVA / GASTRES / QQSHRLTLS gave 380 pM (6 of 6 replicates).
The variant KSSMSVLYESRNENSGA / AASTRES / QQYHRLPLS gave 5.9 nM (6 of 6 replicates).
The variant KSSQSVLYESRNINSVA / KASTRES / QQYHRLPLS gave 32 nM (6 of 6 replicates).
The variant KSSQSVLEESRNMNSVA / WASTRES / QTYHRLPFS gave 840 nM (3 of 6 replicates).

The authors' rule: three or more of the six replicates give a measured affinity, fewer mean a poor binder.
A sequence measured in both rounds can read differently, since the two assays cover different ranges.
Empty control strains, which show no peptide, gave a signal in 4% of pairings with all light chain designs; the median was 430 nM and 95% of these signals were weaker than 38 nM. No background was subtracted.
Where one sequence has several entries in the source, the replicates are pooled.